How the values were obtained:
[1] = biological target: T1, rat GALR3 receptor (rat); test: displacement of porcine 125I-galanin, membranes of stable cell line 293-rGalR3-105
T1 chain: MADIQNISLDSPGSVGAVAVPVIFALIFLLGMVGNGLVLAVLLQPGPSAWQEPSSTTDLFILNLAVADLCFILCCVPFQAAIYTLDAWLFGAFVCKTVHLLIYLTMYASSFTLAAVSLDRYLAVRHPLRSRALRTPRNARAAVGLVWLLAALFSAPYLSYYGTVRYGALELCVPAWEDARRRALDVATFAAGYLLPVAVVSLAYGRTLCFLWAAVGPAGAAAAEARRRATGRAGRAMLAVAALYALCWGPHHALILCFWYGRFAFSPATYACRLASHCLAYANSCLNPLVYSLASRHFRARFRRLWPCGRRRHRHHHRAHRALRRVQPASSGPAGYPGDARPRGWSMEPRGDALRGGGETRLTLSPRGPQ

Amino acid sequences for entries named in this document (tags omitted). A change or cut given only in a name is not applied to a line headed by its entry.
UniProt P10683: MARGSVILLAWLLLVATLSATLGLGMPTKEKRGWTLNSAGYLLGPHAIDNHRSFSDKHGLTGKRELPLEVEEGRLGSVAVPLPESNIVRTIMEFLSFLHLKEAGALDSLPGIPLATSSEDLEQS

[2] = biological target: T1, rat GALR3 receptor; test: displacement of porcine 125I-galanin, rat GalR3 transiently expressed in COS-7 membranes

galantide (peptide) was tested, and the Ki [1] was 7.6 nM.

GWTLNSAGYLLGPHAIDNHRSFSDKHGLT (peptide, UniProt P10683 33-61, looked up, mature) [rat galanin] gave a Ki [2] of 4.3 nM and a Ki [1] of 5.7 nM.

From US20010009766A1 (published 2001)
